Experimental data as given in patent US4977273A, “Fluorine-containing 2-nitroimidazole derivatives” (Kyoto University of Honmachi, priority 1988, dated 1990).

Experiment: in vivo
Details: mouse, female ICR mice of 5 weeks

Q: Which LD50 does the source give for COCC(O)Cn1ccnc1[N+](=O)[O-] (stereo not shown) [Comparative (1), 1-(2-Nitro-1-imidazolyl)-3-methoxy-2-propanol, reference compound] here?
A: The LD50 was 1200 mg/kg.
